These compounds were tested against T1, TGF-beta receptor type-1 (Homo sapiens, UniProt P36897) (assay: Enzyme Activity Inhibition: 1. Preparation of a 1× kinase buffer: 40 mM Tris (pH 7.5), 20 mM MgCl2, 0.10% BSA, 1 mM DTT.2. Compound preparation: The final detection concentration of the compound was 10 μM, which was prepared to a 100-fold concentration, i.e., 1 mM. 100 μL of the 100-fold compound was added in the second well of the 384-well plate, and 60 μL of 100% DMSO was added to the other …).
T1 sequence (P36897 whole entry): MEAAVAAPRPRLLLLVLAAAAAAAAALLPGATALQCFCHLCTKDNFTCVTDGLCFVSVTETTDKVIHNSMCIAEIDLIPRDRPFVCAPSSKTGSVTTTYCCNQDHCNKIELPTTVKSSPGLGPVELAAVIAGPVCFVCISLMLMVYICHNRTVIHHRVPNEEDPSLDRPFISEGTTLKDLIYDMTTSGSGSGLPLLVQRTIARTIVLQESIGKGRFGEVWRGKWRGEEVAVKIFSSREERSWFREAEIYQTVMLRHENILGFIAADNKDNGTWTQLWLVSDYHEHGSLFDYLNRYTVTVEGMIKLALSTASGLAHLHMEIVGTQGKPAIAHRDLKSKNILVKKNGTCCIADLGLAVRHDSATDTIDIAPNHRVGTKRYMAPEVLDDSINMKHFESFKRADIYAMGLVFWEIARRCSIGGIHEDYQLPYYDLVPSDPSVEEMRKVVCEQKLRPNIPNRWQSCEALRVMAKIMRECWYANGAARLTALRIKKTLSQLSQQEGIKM
`CNC(=O)c1cnc2ccc(/C=C\c3cccc(C)n3)cn12` was tested, and the IC50 was 0.0092 µM.
Compound `Cc1cccc(/C=C\c2ccc3ncc(C(=O)NOC4CCCCO4)n3c2)n1` (stereo not drawn) has an IC50 of 0.035 µM.
Work on `CNC(=O)c1cnc2ccc(/C=C/c3cccc(C)n3)cn12` yielded an IC50 of 0.088 µM.
